How the values were obtained:
[1] = biological target: eukaryotic Initiation Factor 4E (eIF4E), wild type (mouse (endogenous in forebrain)) (UniProt P63073); experiment: pull-down; cap-column pulldown: 500 ug forebrain lysate protein with 50 ul m7GDP agarose in buffer C (50 mM MOPS-KOH pH 7.4, 100 mM NaCl, 50 mM NaF, 0.5 mM EDTA, 0.5 mM EGTA, 0.1 mM GTP), 90 min at 4 C; eIF4E held by its ligand m7GDP; cap-bound fraction immunoblotted and quantified, normalised to input
[2] = biological target: eIF4E Ser209Ala (knock-in, 4Eki mice) (mouse (endogenous in forebrain)) (UniProt P63073); experiment: as above

cap-bound protein (arbitrary units, normalised to input) (arbitrary units) [1] | cap-bound protein (arbitrary units, normalised to input) (arbitrary units) [2] | Substance
0.998 | – | ribosomal protein rpL13a (from UniProt P19253 1-203) (natural protein; other documents disagree on this pair)
– | 0.487 | ribosomal protein rpL13a (from UniProt P19253 1-203) (natural protein)

From article PMC5824745
